Results published in patent US20160251408.

Assays:
[1] = system: VWF-039 (VWF D′D3-Fc fusion construct; 26 aa VWF linker with LVPR thrombin cleavage site and PAR1 exosite interaction motif)
[2] = system: VWF-051 (VWF D′D3-Fc fusion construct; 54 aa linker with thrombin cleavage site A-L-R-P-R-V-V)
[3] = system: VWF-054 (VWF D′D3-Fc fusion construct; 40 aa VWF linker comprising an a1 region from FVIII)
[4] = system: VWF-055 (VWF D′D3-Fc fusion construct; 34 aa VWF linker comprising an a2 region from FVIII)
[5] = system: VWF-056 (VWF D′D3-Fc fusion construct; 46 aa VWF linker comprising an a3 region from FVIII)

Substance: human alpha-thrombin
- slope of thrombin-mediated cleavage rate (RU/s) vs capture density (RU), as ratio to VWF-031 (Biacore, 5 U/ml thrombin, 37 C) [1]: SlopeVWF-039/slopeVWF-031 is 71
- thrombin cleavage rate relative to VWF-031 (Biacore) [1]: approximately 70-80-fold faster than VWF-031 (LVPR)
- slope of thrombin-mediated cleavage rate (RU/s) vs capture density (RU), as ratio to VWF-031 (Biacore, 5 U/ml thrombin, 37 C) [2]: slopeVWF-051/slopeVWF-031 is 1.8
- thrombin cleavage, fold reduction (Biacore; reference not given, by context VWF-039/VWF-055) [3]: showed ˜5-fold reduced thrombin cleavage
- slope of thrombin-mediated cleavage rate (RU/s) vs capture density (RU), as ratio to VWF-031 (Biacore, 5 U/ml thrombin, 37 C) [4]: SlopeVWF-055/slopeVWF-031 is 65
- thrombin cleavage, fold reduction (Biacore; reference not given, by context VWF-039/VWF-055) [5]: showed ˜5-fold reduced thrombin cleavage
